Results reported in patent US4866038A, “Method of stimulating integumental melanocytes by topical application of analogs of alpha-msh” (University Patents, Inc., priority 1988, dated 1989).

What was measured:
[1] = resistance to serum proteolytic enzyme degradation; type: in vitro ADME
Protocol: In this procedure, samples of the media containing the peptides (10 nM) were removed at time zero and at 24, 48, and 72 hours. The samples were immediately frozen, and assays for biological activity using the in vitro frog skin bioassay.

[2] = system: TA-98 strain of S. typhimurium; test: Ames microbacterial assay; conditions: 10^-2 M, spontaneous revertants subtracted
Protocol: The Ames microbacterial assay was used for these tests which were performed both with and without a microsomal enzyme/NADPH generating system. Briefly, this test measures the number of reverse mutations which occur in special histidine-dependent strains of Salmonella typhimurium. Positives (mutations) are scored as the number of revertant cells which are able to form colonies in a histidine-deficient growth medium after exposure to a mutagenic substance.
All substances were dissolved in sterile 0.9% sodium chloride (without preservatives) to concentrations of 10^-2, 10^-3 and 10^-4 Molar. The TA-98 strain of S. typhimurium was used and experiments were performed with and without exposure to S-9 rat liver microsomal enzymes and an NADPH generating system. This enzyme cocktail can metabolically activate some compounds to mutagenic species. In addition to the melanotropins, Doxorubicin (Adriamycin™) was also simultaneously tested. […] It was thus included to act as a positive control. […] For the actual evaluation of revertants, the identity of the specific test compound was blinded.

rats = test: toxicology in rats, daily injection for 5 days; type: in vivo, rat; conditions: 0.02 mg daily for 5 consecutive days
Protocol: Six rats were injected with [Nle^4, D--Phe^7 ]-alpha-MSH (0.2 ml of 10^-4 M solution of the peptide; 0.02 mg daily for 5 consecutive days). […] On the last day of the treatment the animals were sacrificed and serum samples obtained. […] If the melanotropins were to stimulate the adrenal then it might be expected that blood glucose levels would be altered (as in Cushing's disease in humans).

Mice = test: toxicology in mice, injection at the same high concentrations; type: in vivo, mouse; conditions: injected at the same abnormally high concentrations
male CD-2 = test: toxicology in male CD-2 mice, intraperitoneal injection; type: in vivo, mouse; conditions: i.p. 0.25 ml of 20-^3 M
Protocol: Additionally studies were performed in male CD-2 injected introperitoneally with 0.25 ml of 20-^3 M of [Nle^4, D--Phe^7 ]MSH. Core temperatures were monitored by rectal probes connected to a digital thermal transducer. There were not consistent changes in the core temperatures which averaged 35.2° C. for up to 24 hours post-injection. The activity level was also normal in these animals. Twenty four hours after dosing, the mice were sacrificed by rapid cervical dislocation and blood removed for analysis of hepatic and renal chemistries, and for characterization of hematologic indices. […] Serum levels of electrolytes were normal. The serum cortisol levels were also normal. […] The red blood cell characteristics (size, hemoglobin level) were normal.

[3] = in vitro penetration of human cadaver and excised skin; type: in vitro ADME; conditions: analog in PEG, penetration cell, 38° C., 24 hours, frog skin bioassay
Protocol: Human cadaver and excised skin from mastectomies, face lifts, etc. has been used to determine the in vitro penetration of alpha-MSH analog [Nle^4 4H,D--PheY7H]-alpha-MSH. Studies have shown that in vitro transdermal delivery in these types of skin accurately predicts the in vitro situation.
(§1) Subcutaneous tissue is removed from these skin samples and they are set up on a specially designed penetration cell [LGA]at 38° C. for 24 hours. AlphaMSH analog in PEG is applied to the epidermal surface. Saline bathes the dermal surface of the sample. The amount of alpha-MSH analog traversing the skin into the saline is quantitated by frog skin bioassay.

[4] = in vitro penetration of mouse skin; type: in vitro ADME; conditions: analog in PEG, penetration cell, 38° C., 24 hours, frog skin bioassay
Protocol: as §1

Question: Which results are given for “[Nle^4, D--Phe^7 ]--alpha-MSH [[Nle^4, D-Phe^7]-alpha-MSH]”?
Answer: enzymatic inactivation [1]: resistant to enzymatic inactivation; REVERTANTS PER PLATE WITH S-9 [2]: 0; REVERTANTS PER PLATE WITHOUT S-9 [2]: 0; blood glucose levels, control versus experimental animals (rats; serum on last day): did not differ; general condition after treatment (rats; 0.2 ml of 10^-4 M): apparently no worse for the treatment; general condition and behavior (Mice): apparently not affected; activity level (male CD-2): normal; Serum levels of electrolytes (male CD-2; 24 hours after dosing): normal; hematologic toxicities, whole blood (male CD-2; 24 hours after dosing): no hematologic toxicities; levels of white blood cells, red blood cells and platelets (male CD-2; 24 hours after dosing): normal levels; liver or kidney function (male CD-2; 24 hours after dosing): no alterations; red blood cell characteristics (size, hemoglobin level) (male CD-2; 24 hours after dosing): normal; serum cortisol levels (male CD-2; 24 hours after dosing): normal; weight change (male CD-2; short-term study): not significant weight change; core temperatures, average (male CD-2; up to 24 hours post-injection, no consistent changes): 35.2 °C; penetration of full thickness intact abdominal thoracic human skin (epidermis+ dermis) [3]: not penetrated entirely; penetration of human scalp full thickness skin [3]: penetrated; penetration of split skin samples of human epidermis (0.5 mm and 0.7 mm) [3]: penetrated; penetration of mouse skin [4]: well penetrated
